Tests used:
[1] = target: T1, Muscarinic acetylcholine receptor M1 (Mus musculus, UniProt P12657); experiment: biochemical
T1 sequence (P12657 whole entry): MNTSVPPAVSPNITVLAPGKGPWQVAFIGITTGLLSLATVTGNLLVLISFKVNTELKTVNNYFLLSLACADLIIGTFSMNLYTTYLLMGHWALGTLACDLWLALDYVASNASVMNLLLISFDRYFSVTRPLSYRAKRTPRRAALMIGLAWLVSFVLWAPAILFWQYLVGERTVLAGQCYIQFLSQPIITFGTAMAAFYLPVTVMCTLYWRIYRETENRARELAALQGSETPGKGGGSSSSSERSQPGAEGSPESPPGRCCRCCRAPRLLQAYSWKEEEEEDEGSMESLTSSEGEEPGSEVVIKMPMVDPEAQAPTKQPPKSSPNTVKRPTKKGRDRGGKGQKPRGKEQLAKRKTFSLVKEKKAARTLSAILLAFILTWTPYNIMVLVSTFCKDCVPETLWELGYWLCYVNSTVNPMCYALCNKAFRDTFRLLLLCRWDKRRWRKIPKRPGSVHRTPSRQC

[2] = target: T1, Muscarinic acetylcholine receptor M1; experiment: biochemical; remark: listed apart in the source

## C[N+](C)(C)CCOC(N)=O.[Cl-] [CARBACHOL]
[1]
  Ki: 0.0199 µM
[2]
  Ki: 0.739 µM
